Laboratory results reported in patent EP2112155B1, “Hydrogensulfate salt of 2-acetoxy-5-(a-cyclopropylcarbonyl-2-fluorobenzyl)-4,5,6,7-tetrahydrothieno[3,2-c]pyridine and its preparation” (Sandoz AG, priority 2008, dated 2009).

Test: Solubility of various Prasugrel acid addition salts, determined according to European Pharmacopoeia 6.0, 5.11 (2008)
Text: As bioavailability depends, among others, on solubility, an optimal active substance for oral application should show a high solubility in a broad pH-range. […] Table 2: Solubility of various Prasugrel acid addition salts

Measured: Solubility

hydrogensulfate salt of 2-acetoxy-5-(α-cyclopropylcarbonyl-2-fluorobenzyl)-4,5,6,7-tetrahydrothieno[3,2-c]pyridine [Prasugrel hydrogensulfate]
freely soluble: Acetate buffer pH 4.5 | Hydrochloric acid medium pH 1.2 | water
